The text below walks through data of patent US9469597B2 (dated 2016).

Sequences of proteins named here, by UniProt entry; tags and fusion partners are left off.
UniProt P27338, whole entry: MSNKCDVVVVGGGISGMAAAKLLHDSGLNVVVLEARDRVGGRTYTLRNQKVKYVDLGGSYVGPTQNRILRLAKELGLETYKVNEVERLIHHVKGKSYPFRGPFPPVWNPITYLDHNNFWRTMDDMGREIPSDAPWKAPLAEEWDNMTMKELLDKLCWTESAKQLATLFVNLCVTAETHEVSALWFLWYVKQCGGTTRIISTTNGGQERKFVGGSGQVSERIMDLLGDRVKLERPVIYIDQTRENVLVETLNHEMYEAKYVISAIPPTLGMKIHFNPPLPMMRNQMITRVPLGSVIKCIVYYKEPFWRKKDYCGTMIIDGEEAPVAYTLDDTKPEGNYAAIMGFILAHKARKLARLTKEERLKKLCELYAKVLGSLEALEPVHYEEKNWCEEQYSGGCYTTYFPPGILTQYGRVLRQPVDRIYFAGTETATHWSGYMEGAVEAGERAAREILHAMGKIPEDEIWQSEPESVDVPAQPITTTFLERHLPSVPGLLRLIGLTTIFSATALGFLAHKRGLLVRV

Test [1] concerns the target Human recombinant monoamine oxidase MAO-B (Homo sapiens (Human), UniProt P27338). Kind of test: Monoamine oxidase assay (kynuramine to 4-hydroxyquinoline fluorescence), MAO-B. The format is biochemical.
Another test concerns THP-1 cells. Kind of test: cells. Conditions: Homo sapiens, THP-1, 96 h.
[2] abbreviates: read-out: MAO-B (IC50-μM), Table 2.

Where a name gives a salt, the structure may show the parent alone. Read-outs that look alike come from different tables or passages of the source.

`Cl.N[C@H]1CC[C@H](N[C@H]2C[C@@H]2c2ccccc2)CC1` [Example 3, (trans)-N1-((1S,2R)-2-phenylcyclopropyl)cyclohexane-1,4-diamine hydrochloride]: in test [1], the concentration for half-maximal inhibition (IC50) (commonly the point on the concentration scale where inhibition reaches its midpoint) is more than 100 µM; the Ki (as a rule, the dissociation constant of the complex between target and ligand, obtained from inhibition or displacement) was more than 40 µM.

Take `N[C@H]1CC[C@@H](N[C@@H]2C[C@H]2c2ccccc2)CC1` [Example 4, (cis)-N1-((1R,2S)-2-phenylcyclopropyl)cyclohexane-1,4-diamine hydrochloride]: in test [1], the IC50 is more than 100 µM and the inhibitory constant (Ki) was more than 40 µM.

Take `N[C@H]1CC[C@H](N[C@@H]2C[C@H]2c2ccccc2)CC1` [Example 5, (trans)-N1-((1R,2S)-2-phenylcyclopropyl)cyclohexane-1,4-diamine hydrochloride]: in test [1] (setting [2]), the half-inhibitory concentration (IC50) was more than 100 µM.

Turning to `NC1CCC(N[C@H]2C[C@@H]2c2ccc(-c3ccc4cn[nH]c4c3)cc2)CC1` (relative stereo) [Example 42, N1-((trans)-2-(4-(1H-indazol-6-yl)phenyl)cyclopropyl)cyclohexane-1,4-diamine], the EC50 (in general, the concentration that produces a half-maximal response) in the test on THP-1 cells was 82.4 nM. In other words, the double-digit nanomolar range.

With `N[C@H]1CC[C@@H](N[C@H]2C[C@@H]2c2ccccc2)CC1` [Example 2, (cis)-N1-((1S,2R)-2-phenylcyclopropyl)cyclohexane-1,4-diamine hydrochloride], in test [1], the IC50 is more than 100 µM and the Ki is more than 40 µM.

Turning to `NC1CCC(N[C@@H]2C[C@@H]2c2ccccc2)CC1` (relative stereo) [Example 21, N1-((cis)-2-phenylcyclopropyl)cyclohexane-1,4-diamine], the IC50 in test [1] (setting [2]) came to 1.36 µM.
